Assay results: paper PMC9234739, “SPD_0090 Negatively Contributes to Virulence of Streptococcus pneumoniae” (Frontiers in Microbiology, 2022)

Molecular target: SPD_0090 (Streptococcus pneumoniae, UniProt A0A0H2ZQK8)
Test: biochemical

Compound: C=CC1=C(C)C2=Cc3c(C=C)c(C)c4[n]3[Fe]([Cl])[n]3c(c(C)c(CCC(=O)O)c3=CC3=NC(=C4)C(C)=C3CCC(=O)O)=CC1=N2 [hemin]
- Kd: 21.7 µM
